Assay results published in patent US12558350B2, “Compositions and methods for treatment” (Bausch + Lomb Ireland Limited, priority 2005, dated 2026).

Chains of the proteins cited; added tags and fusions are not shown. Residues count along the entry.
UniProt P05107, 23-769: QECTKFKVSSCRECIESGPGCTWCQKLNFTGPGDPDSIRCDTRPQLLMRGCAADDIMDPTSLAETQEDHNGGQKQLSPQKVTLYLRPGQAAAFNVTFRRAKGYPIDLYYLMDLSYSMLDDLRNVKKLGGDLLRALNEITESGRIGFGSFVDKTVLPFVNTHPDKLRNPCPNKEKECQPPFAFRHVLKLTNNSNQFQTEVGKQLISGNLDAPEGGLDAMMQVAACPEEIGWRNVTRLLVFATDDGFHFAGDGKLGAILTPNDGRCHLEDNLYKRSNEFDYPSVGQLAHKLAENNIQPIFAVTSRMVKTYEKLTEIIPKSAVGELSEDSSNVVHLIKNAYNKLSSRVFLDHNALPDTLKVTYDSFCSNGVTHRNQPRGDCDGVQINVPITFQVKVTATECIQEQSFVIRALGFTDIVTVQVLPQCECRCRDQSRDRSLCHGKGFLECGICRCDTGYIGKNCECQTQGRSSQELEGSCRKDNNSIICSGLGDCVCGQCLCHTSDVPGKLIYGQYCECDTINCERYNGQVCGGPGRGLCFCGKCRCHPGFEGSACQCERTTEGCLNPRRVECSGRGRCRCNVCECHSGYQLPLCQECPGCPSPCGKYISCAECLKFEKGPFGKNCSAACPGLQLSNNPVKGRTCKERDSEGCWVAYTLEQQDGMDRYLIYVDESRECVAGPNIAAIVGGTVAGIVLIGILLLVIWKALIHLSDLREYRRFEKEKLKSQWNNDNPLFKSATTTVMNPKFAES
UniProt P20701, 26-1170: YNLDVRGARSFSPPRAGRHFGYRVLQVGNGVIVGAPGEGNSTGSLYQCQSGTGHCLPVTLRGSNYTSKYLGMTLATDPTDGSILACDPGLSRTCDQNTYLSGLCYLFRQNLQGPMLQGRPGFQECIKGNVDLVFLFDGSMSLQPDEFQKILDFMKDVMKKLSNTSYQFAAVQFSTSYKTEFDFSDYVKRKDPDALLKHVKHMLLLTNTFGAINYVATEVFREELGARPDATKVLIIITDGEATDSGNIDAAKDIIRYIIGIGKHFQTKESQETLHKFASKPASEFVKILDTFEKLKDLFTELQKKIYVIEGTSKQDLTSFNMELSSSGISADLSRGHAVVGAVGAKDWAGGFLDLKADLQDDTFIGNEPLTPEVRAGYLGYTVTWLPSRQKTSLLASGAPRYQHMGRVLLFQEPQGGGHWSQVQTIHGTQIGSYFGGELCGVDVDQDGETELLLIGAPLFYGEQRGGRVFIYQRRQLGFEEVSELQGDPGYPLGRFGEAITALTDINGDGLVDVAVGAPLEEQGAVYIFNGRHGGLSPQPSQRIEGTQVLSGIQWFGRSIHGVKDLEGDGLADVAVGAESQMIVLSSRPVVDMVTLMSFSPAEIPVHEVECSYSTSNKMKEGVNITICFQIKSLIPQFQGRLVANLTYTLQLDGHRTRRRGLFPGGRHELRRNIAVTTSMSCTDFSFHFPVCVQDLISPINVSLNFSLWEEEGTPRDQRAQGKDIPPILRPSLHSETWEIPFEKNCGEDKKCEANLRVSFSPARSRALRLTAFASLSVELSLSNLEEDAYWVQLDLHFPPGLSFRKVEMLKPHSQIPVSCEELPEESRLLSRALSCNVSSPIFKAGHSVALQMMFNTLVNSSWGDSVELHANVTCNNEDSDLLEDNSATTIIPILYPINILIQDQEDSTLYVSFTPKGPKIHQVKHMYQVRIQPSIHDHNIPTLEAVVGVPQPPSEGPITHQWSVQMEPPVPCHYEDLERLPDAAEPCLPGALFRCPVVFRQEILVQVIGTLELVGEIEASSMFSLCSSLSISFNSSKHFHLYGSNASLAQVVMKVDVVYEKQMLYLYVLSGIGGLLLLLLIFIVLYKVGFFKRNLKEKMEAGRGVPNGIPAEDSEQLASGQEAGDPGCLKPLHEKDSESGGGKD

Assays:
LFA-1/ICAM-1 = target: T1, LFA-1/ICAM-1 (Homo sapiens, UniProt P05107+P20701); test: LFA-1/ICAM-1 ligand binding ELISA with Schild analysis; settings: FIG. 10A, C, E
T1 construct: made in house; host or cells: human 293 cells
Source text: (§1) Pharmacologic Analysis of Drug-Receptor Interaction, Lippincott-Raven, Philadelphia). […] The order of antagonist concentrations was, -[…]-(lowest added antagonist concentration), -Δ-, -μ-, -♦-, -▪-, -σ- to -λ-(highest antagonist concentration). The fits of the data are shown as the solid lines. The data shown are from one plate and are representative of a minimum of two experiments.
This model is based upon the assumptions that equiactive responses in an assay are the result of equivalent occupancy of receptor by ligand and that maximal binding is unchanged by the presence of antagonist. In a Schild analysis, the dose ratio is the ratio of the EC50 values in the presence and absence of antagonist and is a measure of the ligand concentrations leading to equiactive responses. This dose ratio was determined for each concentration of antagonist and the Schild regressions were plotted as shown in FIG. 11.
(§2) In all cases the ligand was added concurrently with the antagonist. The plates were incubated for 6 h at 37° C. to approach equilibrium conditions after antagonist and ligand addition, before wash and addition of the detection antibody. The EC50 values for each curve were determined by fitting with a four parameter model as described above. […] The slopes of the plots of the Log (Conc. ratio −1) vs. Antagonist concentration are calculated by fitting the line to the linear equation, Y=A+BX.

LFA-1 [1] = target: T2, LFA-1 (Homo sapiens, UniProt P05107+P20701); test: LFA-1/small molecule ELISA, antagonist competition with compound 2B; type: binding
T2 construct: made in house; host or cells: human 293 cells

LFA-1 [2] = target: T2, LFA-1; test: LFA-1/small molecule ligand binding ELISA; settings: FIG. 10B, D, F
Description: as §1, §2

CC(=O)N1CCN(C(=O)/C=C/c2ccc(Sc3ccccc3C(C)C)c([N+](=O)[O-])c2)CC1 [A-286982, reference compound]
effect of increasing antagonist concentration on ICAM-1-Ig binding curves (LFA-1/ICAM-1): the maximum binding of ICAM-1-Ig to LFA-1 decreased considerably | effect on binding of compound 2B to LFA-1 (LFA-1 [1]; FIG. 8B): did not inhibit but rather enhanced | concentration of maximal enhancing effect on compound 2B binding (LFA-1 [1]; transient increase in absorbance): approximately 4 μM | effect of increasing antagonist concentration on compound 2B binding curves (LFA-1 [2]): shifted the compound 2B binding curves to lower EC50 values
